The values below come from patent US10676505B2, “Tripeptides having angiotensin converting enzyme inhibitory activity and uses thereof” (SUNSTAR INC., priority 2016, dated 2020).

Chains of the proteins cited; added tags and fusions are not shown. Residues count along the entry.
UniProt P12821, 30-1306, species assumed: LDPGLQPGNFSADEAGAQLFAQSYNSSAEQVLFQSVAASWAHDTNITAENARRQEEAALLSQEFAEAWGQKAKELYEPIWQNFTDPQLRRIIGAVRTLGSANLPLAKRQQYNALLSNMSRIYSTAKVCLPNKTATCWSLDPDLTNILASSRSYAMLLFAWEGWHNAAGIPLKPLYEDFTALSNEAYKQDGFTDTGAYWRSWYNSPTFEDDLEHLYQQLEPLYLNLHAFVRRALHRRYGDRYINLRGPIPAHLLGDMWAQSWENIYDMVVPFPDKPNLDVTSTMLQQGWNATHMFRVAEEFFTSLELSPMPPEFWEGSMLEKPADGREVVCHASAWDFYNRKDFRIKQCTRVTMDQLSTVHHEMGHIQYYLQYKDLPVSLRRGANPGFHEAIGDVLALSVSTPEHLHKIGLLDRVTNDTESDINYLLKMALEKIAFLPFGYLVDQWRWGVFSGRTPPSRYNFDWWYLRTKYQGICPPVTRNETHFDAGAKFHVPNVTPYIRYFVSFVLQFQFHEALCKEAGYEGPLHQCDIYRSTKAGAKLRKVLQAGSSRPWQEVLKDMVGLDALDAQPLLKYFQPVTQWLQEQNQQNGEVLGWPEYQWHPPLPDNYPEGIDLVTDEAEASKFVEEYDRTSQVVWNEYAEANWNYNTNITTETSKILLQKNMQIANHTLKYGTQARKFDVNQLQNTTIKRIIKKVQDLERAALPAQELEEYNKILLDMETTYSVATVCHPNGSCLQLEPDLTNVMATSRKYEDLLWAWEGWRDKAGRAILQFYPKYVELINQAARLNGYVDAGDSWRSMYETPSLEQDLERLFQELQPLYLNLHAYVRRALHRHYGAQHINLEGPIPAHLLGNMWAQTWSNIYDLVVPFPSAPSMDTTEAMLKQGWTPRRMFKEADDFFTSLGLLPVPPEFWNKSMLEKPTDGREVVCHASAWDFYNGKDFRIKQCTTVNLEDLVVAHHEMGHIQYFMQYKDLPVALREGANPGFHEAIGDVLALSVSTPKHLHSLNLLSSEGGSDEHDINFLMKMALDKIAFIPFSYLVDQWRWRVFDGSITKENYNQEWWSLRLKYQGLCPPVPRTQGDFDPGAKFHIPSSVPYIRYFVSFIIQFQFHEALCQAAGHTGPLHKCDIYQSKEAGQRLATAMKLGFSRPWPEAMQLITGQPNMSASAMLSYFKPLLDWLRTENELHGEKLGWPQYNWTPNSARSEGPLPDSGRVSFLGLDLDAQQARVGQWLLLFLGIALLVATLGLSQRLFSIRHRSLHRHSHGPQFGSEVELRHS

Each structure is given as a SMILES string.

One experiment has as its target T1, ACE (Homo sapiens, UniProt P12821).
T1 construct: purchased Dojindo Laboratories ACE Kit-WST
Kind of experiment: Measurement of ACE inhibitory activity (ACE Kit-WST). The conditions noted are these: 3HB-GGG substrate, N=3. Format: biochemical. On the procedure:
Ultrapure water was added to the LRA peptide synthesized in Production Example 1 to prepare a 300 μM aqueous solution. Subsequently, 300-μM, 150-μM, 75-μM, and 30-μM aqueous solutions were each prepared by gradual dilution. These aqueous solutions were used as samples.
The ACE inhibitory activity of each sample was measured using an ACE inhibitory activity measurement kit (trade name: ACE Kit-WST, produced by Dojindo Laboratories). The kit is used to detect 3-hydroxybutyric acid (3HB) cut from 3-hydroxybutyryl-Gly-Gly-Gly (3HB-GGG) by an enzyme method. The operation was carried out according to the instruction manual of the kit, and the ACE inhibitory activity of each sample was measured (N=3). In the kit, the final concentration of the LRA peptide in each sample drops to ⅓.

The test system of experiment [1] is spontaneously hypertensive rats (SHR/Izm). Description: Examination of blood pressure-lowering action in spontaneously hypertensive rats (tail-cuff method). The class given is in vivo, rat. The settings on record: male SHR/Izm rats, 0.25 mg/kg oral, 2 hours and 4 hours after administration, N=5, p<0.05. An excerpt:
Male spontaneously hypertensive rats (SHR/Izm, 12 weeks old) were used as experimental animals. The feed used was solid SP feed (Funabashi Farm), and the drinking water used was tap water. Food intake and drinking water were unrestricted, including during the test. The rats after a habituation period of three weeks were used for the main test. The rats were divided into two groups: an LRA peptide administration group and a control group (each group: N=5).
The LRA peptide synthesized in Production Example 2 was dissolved in physiological saline to prepare a 0.25-mg/ml peptide solution. In the LRA peptide administration group, 0.25 mg/kg of the peptide solution was forcibly administered orally into the stomach by using a 1-ml-volume syringe and a Teflon (registered trademark) stomach tube. In the control group, physiological saline was forcibly orally administered in the same manner as in the sample administration group. Systolic blood pressure was measured by the tail-cuff method before administration, and 2 hours and 4 hours after administration. In the measurement of blood pressure, a blood pressure monitor (MK-2000ST, produced by Muromachi Kikai Co., Ltd.) was used. The degree of reduction in the systolic blood pressure 2 hours and 4 hours after administration compared with the systolic blood pressure before administration was used as an indicator.

What is called IC50 is the concentration needed to halve the response being measured.

As to `CC(C)C[C@H](N)C(=O)N[C@@H](CCCNC(=N)N)C(=O)N[C@@H](C)C(=O)O` [LRA peptide, Leu-Arg-Ala], half-maximal inhibition against ACE (IC50) required 62 µM. For the same molecule, in experiment [1], the “reduction in systolic blood pressure compared with the control group” value is given as “significant reduction in systolic blood pressure”.
